We go through 1 molecule from patent US6610675B1, “Inactive metabolite approach to soft drug design” (priority 1980, dated 2003).

Holding throughout (assay type): in vivo, rat
In data set [1] the test system is ear swelling induced by croton oil. In words: Ear edema test. The conditions noted are these: 1 mg/kg topical, 48 hours. As to the method: The test animals were Sprague/Dawley rats weighing approximately 150 grams each. In treatment groups, selected amounts of the test compound were dissolved in acetone containing 5% croton oil and 50 microliters of the solution were applied to the inner surface of the right ear of the rats. A control group was identically treated with vehicle only, i.e. 5% croton oil in acetone. Six hours after croton oil challenge, a constant region of each ear was removed by dissection under anesthesia. Then, 48 hours after steroid treatment, the animals were sacrificed and the thymi and adrenals were removed and weighed. The test results showing the inhibitory effect of topically applied steroids on the ear swelling induced by croton oil are summarized in Table II below.

In data set [2] the test system is granulation tissue formation caused by implantation of cotton pellets. In words: Granuloma formation test (local cotton pellet granuloma assay). The conditions noted are these: for Relative organ weight Adrenals / Relative organ weight Adrenals (Decrease %) / Relative organ weight Thymus / Relative organ weight Thymus (Decrease %): Table III. As to the method: The test compound was dissolved in acetone and aliquots of varying concentrations were injected into cotton pellets. The pellets were dried and then one pellet was implanted beneath the skin of each test rat. Six days later, the animals were sacrificed and the granulation tissue (granuloma) which formed in and around the implanted pellet was removed, dried and weighed. In addition, the thymi and adrenals were removed and weighed.

For a further data set, the system named is thymus weight in rats. In words: Thymus inhibition testing (subcutaneous administration). As to the method:
Several further studies were undertaken to determine the effects of selected compounds of the invention on thymi weights in rats when the drugs were systemically administered. In each of these studies, male Sprague-Dawley rats were used. […] On the fifth day (48 hours following the last treatment), the animals were sacrificed and the thymi weights were recorded. […] It is evident that the higher the inhibition of thymus activity at a given dose, the more toxic the compound is.

Where [3] appears, read: Table X, betamethasone 17-valerate = 1.

For the molecule `CCCC(=O)O[C@]1(C(=O)CO)CC[C@H]2[C@@H]3CCC4=CC(=O)CC[C@]4(C)[C@H]3[C@@H](O)C[C@@]21C` [Hydrocortisone 17-butyrate, reference compound], in data set [1], the “Relative organ weight Adrenals” value stood at 20.2 ± 0.7 mg/100 g body wt and the “Relative organ weight Thymus” value is listed as 303 ± 21 mg/100 g body wt. Also, in data set [2] (1 mg/pellet), the “Relative organ weight Adrenals” value amounted to 27.1 ± 1.4 mg/100 g body wt, the “Relative organ weight Adrenals (Decrease %)” value is “(−14.3) %”, the “Relative organ weight Thymus” value is 73 ± 5 mg/100 g body wt and the “Relative organ weight Thymus (Decrease %)” value is given as “(77.6) %”. Further, in data set [2] (3 mg/pellet), the “Relative organ weight Adrenals” value worked out at 16.5 ± 1.2 mg/100 g body wt, the “Relative organ weight Adrenals (Decrease %)” value is given as “(30.4) %”, the “Relative organ weight Thymus” value is on record as 47 ± 3 mg/100 g body wt and the “Relative organ weight Thymus (Decrease %)” value was “(85.6) %”. Moreover, in data set [2] (10 mg/pellet), the “Relative organ weight Adrenals” value is given as 16.8 ± 1.2 mg/100 g body wt, the “Relative organ weight Adrenals (Decrease %)” value was “(29.1) %”, the “Relative organ weight Thymus” value stood at 32 ± 3 mg/100 g body wt and the “Relative organ weight Thymus (Decrease %)” value was “(90.2) %”. In addition, the “Relative potency (ED60)” value in data set [2] (chloromethyl 11β-hydroxy-17α-isopropoxycarbonyloxyandrost-4-en-3-one-17β-carboxylate = 1) was 0.7. For the same molecule, in the data set on thymus weight in rats (setting [3]), the “Relative Potency (TED40)” value was found to be 0.23 and the “Relative Potency (TED50)” value came out at 0.29. The “Relative Potency (TED40)” value in the data set on thymus weight in rats (Table XII, hydrocortisone 17-butyrate = 1) was determined as 1.
